Source: PubChem BioAssay AID624354 (Sanford-Burnham Center for Chemical Genomics, 2012)
The list shows a part of the results, in another mix than the full data. Some salts or complexes appear as unconnected parts, following the source record. Calls of active or inactive are those of the source.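 The calls were made as follows: active = compounds causing at least 50% loss of cell viability in the single-dose screen, relative to plate controls; inactive = the rest.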

test: viability loss with TRAIL in NB7+C8 cells, primary screen, TRAIL sensitizer project, cell-based, ATPlite luminescence (AID 624354); settings: at 10 µM, stronger effect = higher value

**Q.** With `Cc1c([N+](=O)[O-])cc([N+](=O)[O-])c(Br)c1[N+](=O)[O-]` as the molecule, how does the inhibition (viability loss, TRAIL sensitization) read?
**A.** inactive: -16%

**Q.** Which inhibition (viability loss, TRAIL sensitization) does the source give for `CC(C)c1ccc(OP(C)(=O)Nc2ccc(SC(F)(F)F)cc2)cc1` (stereo unspecified) here?
**A.** inactive: -3.65%

**Q.** For `CP(=O)(Nc1ccccc1F)Oc1ccccc1` (stereo unspecified), which inhibition (viability loss, TRAIL sensitization) is on record?
**A.** inactive: -15.8%

**Q.** For `O=[N+]([O-])c1cc([N+](=O)[O-])c(Nc2ccc(Cl)cc2)c([N+](=O)[O-])c1`, which inhibition (viability loss, TRAIL sensitization) is on record?
**A.** inactive: 16.2%

**Q.** For `COc1ccc2c(c1O)-c1c(O)c(OC)cc3c1[C@H](C2)[N+](C)(C)CC3.O=[N+]([O-])c1cc([N+](=O)[O-])c([O-])c([N+](=O)[O-])c1[O-]`, which inhibition (viability loss, TRAIL sensitization) is on record?
**A.** inactive: 7.85%

**Q.** With `O=C(OCCN1CCN(CCOCc2ccccc2)CC1)C(O)(c1ccccc1)c1ccccc1` as the molecule, how does the inhibition (viability loss, TRAIL sensitization) read?
**A.** inactive: -2.6%

**Q.** With `O=C(OC1CN2CCC1CC2)c1ccc([N+](=O)[O-])cc1` (stereo unspecified) as the molecule, how does the inhibition (viability loss, TRAIL sensitization) read?
**A.** inactive: -4.02%

**Q.** Which inhibition (viability loss, TRAIL sensitization) does the source give for `CCOP(C)(=S)SCC(=O)NC(C)(CC)C(=O)O` (stereo unspecified) here?
**A.** inactive: -20.2%

**Q.** Which inhibition (viability loss, TRAIL sensitization) does the source give for `CP(=O)(Nc1ccc(SC(F)(F)F)cc1)Oc1ccc(F)cc1` (stereo unspecified) here?
**A.** inactive: 0.762%

**Q.** For `O=[N+]([O-])c1cc([N+](=O)[O-])c(C(F)(F)F)c([N+](=O)[O-])c1O`, which inhibition (viability loss, TRAIL sensitization) is on record?
**A.** inactive: -5.95%

**Q.** With `Cc1ccccc1NP(C)(=O)Nc1ccccc1C` as the molecule, how does the inhibition (viability loss, TRAIL sensitization) read?
**A.** inactive: -5.76%

**Q.** Which inhibition (viability loss, TRAIL sensitization) does the source give for `CP(=O)(Nc1ccc2c(c1)OCCO2)Oc1ccccc1` (stereo unspecified) here?
**A.** inactive: -5.39%

**Q.** Which inhibition (viability loss, TRAIL sensitization) does the source give for `COc1ccc(NP(C)(=O)Oc2ccccc2OC)cc1` (stereo unspecified) here?
**A.** inactive: -3.91%

**Q.** With `CN(C)CCOC(=O)C(O)(c1ccccc1)C1CCCCC1` (stereo unspecified) as the molecule, how does the inhibition (viability loss, TRAIL sensitization) read?
**A.** inactive: 7.4%

**Q.** For `COc1ccc(OP(C)(=O)Nc2cccc(Br)c2)cc1` (stereo unspecified), which inhibition (viability loss, TRAIL sensitization) is on record?
**A.** inactive: 5.7%

**Q.** For `Cc1c(C(c2ccc3c(c2)OCO3)c2c(C)n(C)n(-c3ccccc3)c2=O)c(=O)n(-c2ccccc2)n1C.O=[N+]([O-])c1cc([N+](=O)[O-])c(O)c([N+](=O)[O-])c1`, which inhibition (viability loss, TRAIL sensitization) is on record?
**A.** inactive: 3.29%

**Q.** Which inhibition (viability loss, TRAIL sensitization) does the source give for `O=[N+]([O-])c1cc([N+](=O)[O-])c(NCC2CCS(=O)(=O)C2)c([N+](=O)[O-])c1` (stereo unspecified) here?
**A.** inactive: 3.65%

**Q.** With `Cc1cc(-c2cccc3ccccc23)c(C)cn1.O=[N+]([O-])c1cc([N+](=O)[O-])c(O)c([N+](=O)[O-])c1` as the molecule, how does the inhibition (viability loss, TRAIL sensitization) read?
**A.** inactive: 4.61%

**Q.** Which inhibition (viability loss, TRAIL sensitization) does the source give for `O=[N+]([O-])c1ccc(OP2(=O)COCCO2)cc1` (stereo unspecified) here?
**A.** inactive: 5.92%

**Q.** Which inhibition (viability loss, TRAIL sensitization) does the source give for `CP(=O)(OC12CC3CC(CC(C3)C1)C2)OC12CC3CC(CC(C3)C1)C2` here?
**A.** inactive: -10.3%

**Q.** Which inhibition (viability loss, TRAIL sensitization) does the source give for `CCOC(=O)c1ccc(NP(C)(=O)Oc2ccc(Cl)cc2)cc1` (stereo unspecified) here?
**A.** inactive: -24.1%

**Q.** For `CCc1ccc(OP(C)(=O)Nc2cccnc2)cc1` (stereo unspecified), which inhibition (viability loss, TRAIL sensitization) is on record?
**A.** inactive: -13.5%

**Q.** For `CP(=O)(Oc1ccccc1)N1CCOC1=O` (stereo unspecified), which inhibition (viability loss, TRAIL sensitization) is on record?
**A.** inactive: -9.87%

**Q.** For `O=C(OCCCN1CCCC1)C(O)(c1ccccc1)C1CCCCC1` (stereo unspecified), which inhibition (viability loss, TRAIL sensitization) is on record?
**A.** inactive: -6.77%

**Q.** For `COc1ccccc1OP(C)(=O)Nc1c(C)n(C)n(-c2ccccc2)c1=O` (stereo unspecified), which inhibition (viability loss, TRAIL sensitization) is on record?
**A.** inactive: -8.29%

**Q.** Which inhibition (viability loss, TRAIL sensitization) does the source give for `COc1ccc(OP(C)(=O)Nc2ccc(Br)cc2)cc1` (stereo unspecified) here?
**A.** inactive: -15.5%

**Q.** For `CCN(CC)CC(O)COC(=O)C(O)(c1ccccc1)C1CCCCC1` (stereo unspecified), which inhibition (viability loss, TRAIL sensitization) is on record?
**A.** inactive: 3.92%

**Q.** For `CN(C)C(=O)c1c([N+](=O)[O-])cc([N+](=O)[O-])cc1[N+](=O)[O-]`, which inhibition (viability loss, TRAIL sensitization) is on record?
**A.** inactive: -6.07%

**Q.** Which inhibition (viability loss, TRAIL sensitization) does the source give for `CP(=O)(Nc1ccc(Cl)cc1)Oc1ccc(F)cc1` (stereo unspecified) here?
**A.** inactive: 18.6%

**Q.** For `COc1ccccc1OP(C)(=O)Nc1ccccc1Br` (stereo unspecified), which inhibition (viability loss, TRAIL sensitization) is on record?
**A.** inactive: 0.996%

**Q.** For `CC(C)(C)c1ccc(OP(C)(=O)O)cc1`, which inhibition (viability loss, TRAIL sensitization) is on record?
**A.** inactive: -13.6%

**Q.** Which inhibition (viability loss, TRAIL sensitization) does the source give for `CN(C)CCOC(=O)C(O)(c1ccccc1)C1CCCC1` (stereo unspecified) here?
**A.** inactive: -0.944%

**Q.** With `COc1ccc(OP(C)(=O)Nc2ccccn2)cc1` (stereo unspecified) as the molecule, how does the inhibition (viability loss, TRAIL sensitization) read?
**A.** inactive: -5.96%

**Q.** With `COc1ccccc1OP(C)(=O)Nc1ccc(Br)cc1` (stereo unspecified) as the molecule, how does the inhibition (viability loss, TRAIL sensitization) read?
**A.** inactive: -7.31%

**Q.** For `CCc1ccc(OP(C)(=O)O)cc1`, which inhibition (viability loss, TRAIL sensitization) is on record?
**A.** inactive: -5.83%

**Q.** For `COc1ccccc1OP(C)(=O)Nc1ccc(C)cc1C` (stereo unspecified), which inhibition (viability loss, TRAIL sensitization) is on record?
**A.** inactive: -12.2%

**Q.** Which inhibition (viability loss, TRAIL sensitization) does the source give for `CP(=O)(Nc1ccccn1)Oc1ccccc1` (stereo unspecified) here?
**A.** inactive: -11.4%

**Q.** With `Cc1c(NP(C)(=O)Oc2ccc(C(C)C)cc2)c(=O)n(-c2ccccc2)n1C` (stereo unspecified) as the molecule, how does the inhibition (viability loss, TRAIL sensitization) read?
**A.** inactive: -1.42%

**Q.** With `O=[N+]([O-])c1cc([N+](=O)[O-])c(Nc2ccccn2)c([N+](=O)[O-])c1` as the molecule, how does the inhibition (viability loss, TRAIL sensitization) read?
**A.** active: 52%

**Q.** For `COc1ccc(OP(C)(=O)Nc2ccccc2Br)cc1` (stereo unspecified), which inhibition (viability loss, TRAIL sensitization) is on record?
**A.** inactive: 6.39%

**Q.** With `COc1ccccc1OP(C)(=O)Nc1ccc(C)c(C)c1` (stereo unspecified) as the molecule, how does the inhibition (viability loss, TRAIL sensitization) read?
**A.** inactive: -3.74%

**Q.** With `Cc1cc(C)cc(OP(C)(=O)Nc2cccc(C(F)(F)F)c2)c1` (stereo unspecified) as the molecule, how does the inhibition (viability loss, TRAIL sensitization) read?
**A.** inactive: -3.15%

**Q.** For `O=C1C(O)=C([N+](=O)[O-])C(=O)C(O)=C1[N+](=O)[O-]`, which inhibition (viability loss, TRAIL sensitization) is on record?
**A.** inactive: 4.7%

**Q.** For `CCCCCCCCCCCCCCCC1C[N+](C)(C)CCOP(C)(=O)O1` (stereo unspecified), which inhibition (viability loss, TRAIL sensitization) is on record?
**A.** active: 80.9%

**Q.** For `CP(=O)(Nc1ccc(Cl)cc1Cl)Oc1ccccc1` (stereo unspecified), which inhibition (viability loss, TRAIL sensitization) is on record?
**A.** inactive: 1.7%

**Q.** With `CP(=O)(OCCOc1ccccc1)OCCOc1ccccc1` as the molecule, how does the inhibition (viability loss, TRAIL sensitization) read?
**A.** inactive: 4.04%
